This note sets out measurements from PubChem BioAssay AID2797 (The Scripps Research Institute Molecular Screening Center, 2010).

Protein sequences, listed by entry. Tags and fused reporters are not part of them.
UniProt P37288, whole entry: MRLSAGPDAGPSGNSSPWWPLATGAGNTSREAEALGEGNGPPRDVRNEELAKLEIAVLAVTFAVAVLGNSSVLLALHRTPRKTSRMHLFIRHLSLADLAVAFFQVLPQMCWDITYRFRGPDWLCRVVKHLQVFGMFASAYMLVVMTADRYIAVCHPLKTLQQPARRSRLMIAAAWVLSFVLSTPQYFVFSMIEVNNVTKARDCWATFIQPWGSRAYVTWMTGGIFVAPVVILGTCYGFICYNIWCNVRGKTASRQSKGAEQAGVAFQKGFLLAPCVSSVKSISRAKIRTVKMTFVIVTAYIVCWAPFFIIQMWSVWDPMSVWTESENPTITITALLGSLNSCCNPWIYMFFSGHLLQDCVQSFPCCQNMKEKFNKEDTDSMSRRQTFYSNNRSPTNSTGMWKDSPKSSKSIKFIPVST

Only a part is listed here, and it is no random draw. The source made the active and inactive calls.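 The calls were made as follows: active = activation above the mean activation of all tested compounds plus 3 SD, per screening run (cut at about 20% in these data); inactive = the rest.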

In this assay the target is Vasopressin V1a receptor (Homo sapiens) (UniProt P37288). Put plainly: V1R activation via calcium rise – fluorescence, CHO-V1R cells, counter-screen for OXTR agonist project, primary screen (AID 2797).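 Also: signal is peak over basal fluorescence ratio across a 100 second FLIPR read.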 To be noted: Fluo-8 calcium fluorescence, agonist mode, at 3 µM, active compounds read high, 0% DMSO, 100% 3 nM vasopressin.
For `CCC(=O)N(c1ccccc1)C1(COC)CCN(CCn2nnn(CC)c2=O)CC1`, the activation was inactive: 0.22%.

Regarding `CCC(=O)N(c1ccccc1)C1(COC)CCN(CCc2cccs2)CC1`, the activation was inactive: -0.42%.
